Assay results published in publication doi:10.1101/2023.02.27.530254, “Large library docking for cannabinoid-1 receptor agonists with reduced side effects” (bioRxiv, 2024).
Like-named read-outs stand apart in the source and are kept apart here.

Chains of the proteins cited; added tags and fusions are not shown.
UniProt P20272, whole entry: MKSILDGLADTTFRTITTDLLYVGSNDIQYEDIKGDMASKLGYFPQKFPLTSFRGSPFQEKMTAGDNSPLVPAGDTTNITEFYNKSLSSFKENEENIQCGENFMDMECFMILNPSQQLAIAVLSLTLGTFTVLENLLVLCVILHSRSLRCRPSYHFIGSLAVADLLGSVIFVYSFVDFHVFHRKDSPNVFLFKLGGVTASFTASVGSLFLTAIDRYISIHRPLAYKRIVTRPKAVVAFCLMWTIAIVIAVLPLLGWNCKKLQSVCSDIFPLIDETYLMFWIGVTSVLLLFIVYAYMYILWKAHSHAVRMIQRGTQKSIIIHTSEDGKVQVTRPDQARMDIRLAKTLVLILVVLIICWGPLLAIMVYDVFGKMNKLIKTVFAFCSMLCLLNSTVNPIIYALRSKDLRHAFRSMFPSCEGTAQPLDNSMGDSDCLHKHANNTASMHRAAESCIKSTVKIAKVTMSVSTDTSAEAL
UniProt P21554, whole entry: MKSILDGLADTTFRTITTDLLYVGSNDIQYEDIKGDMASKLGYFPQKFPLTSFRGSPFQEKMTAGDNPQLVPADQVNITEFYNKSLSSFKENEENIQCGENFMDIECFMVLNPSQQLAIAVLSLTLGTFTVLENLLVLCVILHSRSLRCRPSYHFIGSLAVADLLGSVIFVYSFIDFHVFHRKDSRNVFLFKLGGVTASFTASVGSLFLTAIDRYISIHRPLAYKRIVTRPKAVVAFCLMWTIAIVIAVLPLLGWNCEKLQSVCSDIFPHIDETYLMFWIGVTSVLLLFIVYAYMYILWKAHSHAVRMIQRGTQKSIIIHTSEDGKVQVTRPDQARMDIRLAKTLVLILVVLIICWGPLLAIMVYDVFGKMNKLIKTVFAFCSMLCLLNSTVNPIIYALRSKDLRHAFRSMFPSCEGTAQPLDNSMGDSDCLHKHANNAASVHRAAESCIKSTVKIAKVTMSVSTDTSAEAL

Experiments:
CB1 = CB1 (Rattus norvegicus, UniProt P20272); assay: Radioligand competition binding with [3H]-CP-55,940, rat brain membranes
hCB1 = hCB1 (Homo sapiens, UniProt P21554); assay: bioSens-All ebBRET effector biosensor signaling profiling, HEK293; type: cell-based

Cc1cc(C(=O)NC(C)(C(=O)O)c2cccs2)nn1-c1cccc(C(F)(F)F)c1 (centres unmarked)
Ki (CB1): 5 µM
rCB1 binding pKi [95% CI] (CB1; [3H]-CP-55,940 competition, rat brain membranes): 5.3 [5.1 – 5.4]
rCB1 binding Emax [SEM] (CB1; maximal radioligand displacement): 103%
Ki (CB1; read-out: rCB1 binding Ki [95% CI], [3H]-CP-55,940 competition, rat brain membranes): 5.33 µM
% 1H-CP-55,940 displacement (mean) from single point screen (CB1; screens at 10 μM (white cells), 1 μM (orange) or 300 nM (green), cell colours not visible): 64.38%
hCB1 Gi1 pEC50 [95% CI] (hCB1; Gi1 sensor): 5.2 [5.1 – 5.2]
hCB1 Gi1 Emax [95% CI] (hCB1; Gi1 sensor, normalized to CP-55,940): 108%
hCB1 GoB pEC50 [95% CI] (hCB1; GoB sensor): 5.1 [5.0 – 5.2]
hCB1 GoB Emax [95% CI] (hCB1; GoB sensor, normalized to CP-55,940): 115%
hCB1 Gz pEC50 [95% CI] (hCB1; Gz sensor): 5.6 [5.3 – 6.0]
hCB1 Gz Emax [95% CI] (hCB1; Gz sensor, normalized to CP-55,940): 114%
EC50 (hCB1; read-out: hCB1 Gi1 EC50 [95% CI], Gi1 sensor): 6.52 µM
EC50 (hCB1; read-out: hCB1 GoB EC50 [95% CI], GoB sensor): 7.99 µM
EC50 (hCB1; read-out: hCB1 Gz EC50 [95% CI], Gz sensor): 2.43 µM
